Results as given in ChEMBL document CHEMBL3297658, “Potent fluorinated agelastatin analogues for chronic lymphocytic leukemia: design, synthesis, and pharmacokinetic studies” (J Med Chem, 2014).
In brackets after ≈: the same amount, converted by molar mass.

Columns and labels:
[1] = Solubility of compound in water at 25 degC; type: physicochemical; conditions: buffer
[2] = Lipophilicity, log P of compound at 25 degC; type: physicochemical; conditions: octanol/water
[3] = Drug excretion in BALB/c mouse urine at 2.5 mg/kg, ip administered as single dose measured after 5 mins by LC/MS analysis; type: ADME, organism-based; design: dose 2.5 mg/kg, route intraperitoneal; conditions: in vivo

## CN1C(=O)N[C@H]2[C@@H]3NC(=O)c4ccc(Br)n4[C@@H]3C[C@]21O (stereo in doubt; 1a) [AGELASTATIN A]
[1]
  solubility: 640 µg/mL (≈ 1880 µM)
[2]
  logP: 0.18
[3]
  Drug excretion: 217 µM
